Laboratory results reported in publication PMC3923297, “Structural basis for microtubule recognition by the human kinetochore Ska complex” (Nature Communications, 2014).

Amino acid sequences for entries named in this document (tags omitted).
UniProt P81947, whole entry, chain 1 of 2: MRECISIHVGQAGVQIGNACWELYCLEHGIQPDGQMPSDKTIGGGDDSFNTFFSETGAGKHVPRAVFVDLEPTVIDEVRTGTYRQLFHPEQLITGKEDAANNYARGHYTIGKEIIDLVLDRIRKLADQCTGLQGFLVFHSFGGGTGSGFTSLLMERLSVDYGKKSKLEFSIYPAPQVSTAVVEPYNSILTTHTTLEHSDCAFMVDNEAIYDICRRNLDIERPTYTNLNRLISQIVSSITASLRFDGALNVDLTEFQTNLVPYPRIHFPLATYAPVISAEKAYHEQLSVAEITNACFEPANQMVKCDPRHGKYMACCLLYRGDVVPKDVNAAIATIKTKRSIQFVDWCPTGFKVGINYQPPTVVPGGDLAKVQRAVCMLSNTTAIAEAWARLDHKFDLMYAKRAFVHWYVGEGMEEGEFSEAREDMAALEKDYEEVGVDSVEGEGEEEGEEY
microtubules polymerised from tubulin (α1B and β2B tubulin), UniProt Q6B856, whole entry, chain 2 of 2: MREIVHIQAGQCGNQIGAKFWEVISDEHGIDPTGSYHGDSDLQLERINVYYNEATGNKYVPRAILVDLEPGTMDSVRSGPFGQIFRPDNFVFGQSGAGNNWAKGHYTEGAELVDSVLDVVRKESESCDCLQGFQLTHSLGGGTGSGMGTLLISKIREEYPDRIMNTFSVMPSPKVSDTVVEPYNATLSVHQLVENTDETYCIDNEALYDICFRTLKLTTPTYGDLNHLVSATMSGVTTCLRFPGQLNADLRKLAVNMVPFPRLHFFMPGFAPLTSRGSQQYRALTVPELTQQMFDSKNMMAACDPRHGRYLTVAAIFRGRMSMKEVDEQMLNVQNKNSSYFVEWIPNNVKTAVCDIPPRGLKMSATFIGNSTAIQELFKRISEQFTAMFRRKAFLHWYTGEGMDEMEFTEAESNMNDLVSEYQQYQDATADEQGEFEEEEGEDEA

B1: Ska complex with Ska1 K183/184/203/206A (complex, human)
chain 1: MASSDLEQLCSHVNEKIGNIKKTLSLRNCGQEPTLKTVLNKIGDEIIVINELLNKLELEIQYQEQTNNSLKELCESLEEDYKDIEHLKENVPSHLPQVTVTQSCVKGSDLDPEEPIKVEEPEPVKKPPKEQRSIKEMPFITCDEFNGVPSYMKSRLTYNQINDVIKEINKAVISKYKILHQPAASMNSVTRNLYHRFIDEETADTAGRYFIVEADIKEFTTLKADKKFHVLLNILRHCRRLSEVRGGGLTRYVIT
chain 2: MEAEVDKLELMFQKAESDLDYIQYRLEYEIKTNHPDSASEKNPVTLLKELSVIKSRYQTLYARFKPVAVEQKESKSRICATVKKTMNMIQKLQKQTDLELSPLTKEEKTAAEQFKFHMPDL
chain 3: MDPIRSFCGKLRSLASTLDCETARLQRALDGEESDFEDYPMRILYDLHSEVQTLKDDINILLDKARLENQEGIDFIKATKVLMEKNSMDIMKIREYFQKYGYSPRVKKNSVHEQEAINSDPELSNCENFQKTDVKDDLSDPPVASSCISEKSPRSPQLSDFGLERYIVSQVLPNPPQAVNNYKEEPVIVTPPTKQSLVKVLKTPKCALKMDDFECVTPKLEHFGISEYTMCLNEDYTMGLKNARNNKSEEAIDTESRLNDNVFATPSPIIQQLEKSDAEYTNSPLVPTFCTPGLKIPSTKNSIALVSTNYPLSKTNSSSNDLEVEDRTSLVLNSDTCFENLTDPSSPTISSYENLLRTPTPPEVTKIPEDILQLLSKYNSNLATPIAIKAVPPSKRFLKHGQNIRDVSNKEN
B2: Ska complex with Ska1 K217/223/226/227A (complex, human)
chain 1: MASSDLEQLCSHVNEKIGNIKKTLSLRNCGQEPTLKTVLNKIGDEIIVINELLNKLELEIQYQEQTNNSLKELCESLEEDYKDIEHLKENVPSHLPQVTVTQSCVKGSDLDPEEPIKVEEPEPVKKPPKEQRSIKEMPFITCDEFNGVPSYMKSRLTYNQINDVIKEINKAVISKYKILHQPKKSMNSVTRNLYHRFIDEETKDTKGRYFIVEADIAEFTTLAADAAFHVLLNILRHCRRLSEVRGGGLTRYVIT
chain 2: MEAEVDKLELMFQKAESDLDYIQYRLEYEIKTNHPDSASEKNPVTLLKELSVIKSRYQTLYARFKPVAVEQKESKSRICATVKKTMNMIQKLQKQTDLELSPLTKEEKTAAEQFKFHMPDL
chain 3: MDPIRSFCGKLRSLASTLDCETARLQRALDGEESDFEDYPMRILYDLHSEVQTLKDDINILLDKARLENQEGIDFIKATKVLMEKNSMDIMKIREYFQKYGYSPRVKKNSVHEQEAINSDPELSNCENFQKTDVKDDLSDPPVASSCISEKSPRSPQLSDFGLERYIVSQVLPNPPQAVNNYKEEPVIVTPPTKQSLVKVLKTPKCALKMDDFECVTPKLEHFGISEYTMCLNEDYTMGLKNARNNKSEEAIDTESRLNDNVFATPSPIIQQLEKSDAEYTNSPLVPTFCTPGLKIPSTKNSIALVSTNYPLSKTNSSSNDLEVEDRTSLVLNSDTCFENLTDPSSPTISSYENLLRTPTPPEVTKIPEDILQLLSKYNSNLATPIAIKAVPPSKRFLKHGQNIRDVSNKEN
B3: Ska complex with Ska1 R155/236/245A (complex, human)
chain 1: MASSDLEQLCSHVNEKIGNIKKTLSLRNCGQEPTLKTVLNKIGDEIIVINELLNKLELEIQYQEQTNNSLKELCESLEEDYKDIEHLKENVPSHLPQVTVTQSCVKGSDLDPEEPIKVEEPEPVKKPPKEQRSIKEMPFITCDEFNGVPSYMKSALTYNQINDVIKEINKAVISKYKILHQPKKSMNSVTRNLYHRFIDEETKDTKGRYFIVEADIKEFTTLKADKKFHVLLNILAHCRRLSEVAGGGLTRYVIT
chain 2: MEAEVDKLELMFQKAESDLDYIQYRLEYEIKTNHPDSASEKNPVTLLKELSVIKSRYQTLYARFKPVAVEQKESKSRICATVKKTMNMIQKLQKQTDLELSPLTKEEKTAAEQFKFHMPDL
chain 3: MDPIRSFCGKLRSLASTLDCETARLQRALDGEESDFEDYPMRILYDLHSEVQTLKDDINILLDKARLENQEGIDFIKATKVLMEKNSMDIMKIREYFQKYGYSPRVKKNSVHEQEAINSDPELSNCENFQKTDVKDDLSDPPVASSCISEKSPRSPQLSDFGLERYIVSQVLPNPPQAVNNYKEEPVIVTPPTKQSLVKVLKTPKCALKMDDFECVTPKLEHFGISEYTMCLNEDYTMGLKNARNNKSEEAIDTESRLNDNVFATPSPIIQQLEKSDAEYTNSPLVPTFCTPGLKIPSTKNSIALVSTNYPLSKTNSSSNDLEVEDRTSLVLNSDTCFENLTDPSSPTISSYENLLRTPTPPEVTKIPEDILQLLSKYNSNLATPIAIKAVPPSKRFLKHGQNIRDVSNKEN

Biological target: T1, microtubules polymerised from tubulin (α1B and β2B tubulin) (UniProt P81947 1-451; Q6B856 1-445)
T1 construct: α-tubulin, printed as α1B tubulin; β-tubulin, printed as β2B tubulin; Polymer of α/β-tubulin dimers; The same tubulin stood as taxol-stabilized (straight) MTs and as vinblastine spirals (curved); the assay tells them apart; brain tubulin is a mix of isotypes; also called MTs; taxol-stabilized MTs; source: bought: Cytoskeleton Inc. (tubulin), polymerised; taxol-stabilized MTs or vinblastine spirals
Test: co-sedimentation; MT-pelleting assay: taxol-stabilized MTs or subtilisin-treated MTs (0-12 μM tubulin dimer) with 1 or 3 μM protein, 10 min at room temperature, BRB80 (80 mM PIPES pH 6.9, 1 mM EGTA, 1 mM MgCl2) with 100 mM NaCl, 4 mM DTT, 20 μM taxol; spun through a glycerol cushion, 25 °C; SDS-PAGE, Coomassie, ImageJ. Kd: 1 μM Ska and 0-12 μM MTs; single points: 3 μM Ska (or 1 μM) and 6 μM MTs
Conditions: both partners purified

B1 and B2 are within error of each other in Kd: 17.1 ± 5.5 µM for the first, 14.5 ± 2.8 µM for the second.

B3 showed a Kd of 20 ± 4.5 µM.
